The results in this text go back to patent EP0076669A1, “Novel 3-phenyl-1-indanamines, pharmaceutical compositions and methods of preparation” (KEFALAS A/S, priority 1981, dated 1983).

By UniProt entry, the sequences of proteins in these tests, tags left out.
UniProt P23977, whole entry: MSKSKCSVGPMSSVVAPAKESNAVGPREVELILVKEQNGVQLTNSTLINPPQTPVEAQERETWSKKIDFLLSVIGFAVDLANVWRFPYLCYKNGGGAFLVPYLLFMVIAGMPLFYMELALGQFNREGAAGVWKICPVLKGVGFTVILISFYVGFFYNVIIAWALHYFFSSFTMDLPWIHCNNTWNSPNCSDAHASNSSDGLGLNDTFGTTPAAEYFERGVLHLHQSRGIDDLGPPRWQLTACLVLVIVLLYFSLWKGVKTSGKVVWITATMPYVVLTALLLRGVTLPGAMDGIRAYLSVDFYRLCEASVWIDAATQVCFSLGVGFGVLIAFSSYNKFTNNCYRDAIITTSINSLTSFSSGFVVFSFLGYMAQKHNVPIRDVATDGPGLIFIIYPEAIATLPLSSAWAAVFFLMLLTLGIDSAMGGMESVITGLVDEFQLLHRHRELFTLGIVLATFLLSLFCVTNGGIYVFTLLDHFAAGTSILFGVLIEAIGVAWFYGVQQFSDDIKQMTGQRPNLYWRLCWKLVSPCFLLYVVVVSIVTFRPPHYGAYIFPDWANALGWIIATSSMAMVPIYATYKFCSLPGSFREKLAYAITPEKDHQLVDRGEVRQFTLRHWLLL

Usually IC50 stands for the concentration at which inhibition is half-maximal. Higher therefore signals a need for much substance.

Where a name gives a salt, the structure may show the parent alone.

The target of the assay is T1, ^3H-DA uptake in striatal synaptosomes (Rattus norvegicus, UniProt P23977).
T1 construct: the two corpura striata are dissected out and gently homogenized; from tissue; host or cells: rat corpus striatum, synaptosomal P2 fraction
Description: biochemical. Also on record: species or system Rats. The protocol:
^3H-DA uptake in striatal synaptosomes in vitro.
0.32 M sucrose containing 1 mM Nialamide
Krebs-Ringer-phosphate buffer, pH 7.4
3,4-dihydroxyphenylethylamine [ethyl-1-^3H(N)] = ^3H-DA, spc. act. app. 15 Ci/mmol, New England Nuclear
Thomas Tissue Grinder, clearance 0.004-0.006 inch.
Rats are killed by a blow to their head, exsanguinated and their brains removed. The brain is placed on a precooled glassplate, and the two corpura striata are dissected out and gently homogenized in 40 volumes of ice cold 0.32 M sucrose containing 1 mM of nialamide using a hand homogenizer with teflon pestle. The P2-fraction (synaptosomal fraction) is obtained by centrifugation (600 g, 10 min., 25000 g, 55 min. 4 °C) and suspended in 40 volumes of a modified Krebs-Ringer-phosphate buffer, pH 7.4. To 200µl of the synaptosomal fraction on ice are added 3700 µl modified Krebs-Ringer-phosphate buffer - containing test compounds. After a preincubation at 37°C for 5 min. […] The incubation is terminated by filtering the samples under vacuum through Millipore filters with a wash of 5 ml buffer containing 10 µM of unlabelled DA. After solubilizing the filters in 1 ml of cellosolve the radioactivity is determined by liquid scintillation counting after the addition of 10 ml of Insta-Gel. The unspecific binding of ^3H-DA is determined by incubating control samples on ice instead of at 37 °C.
All experiments are performed in ttriplicate.
The mean of all control samples and ice samples are calculated.
Consider `CN[C@@H]1C[C@@H](c2ccc(Cl)c(Cl)c2)c2ccccc21` (relative stereo) [Lu 19-005-c, trans-N-methyl-3-(3',4'-dichlorophenyl)-I-indanamine], for which half-maximal inhibition (IC50) was put at 0.59 nM.

As for `CN[C@@H]1C[C@H](c2ccc(Cl)c(Cl)c2)c2ccccc21` (relative stereo) [Lu 19-006-c, cis-N-methyl-3-(3',4'-dichlorophenyl)-1-indanamine], inhibition was half-maximal at 5.2 nM (IC50).

The compound `CN[C@@H]1C[C@@H](c2ccc(Cl)c(Cl)c2)c2ccccc21` (single isomer, unassigned) [Lu 20-042-c, (+) trans N-methyl-3-(3,4-dichlorophenyl)-1-indanamine, hydrochloride] yielded an IC50 of 1.9 nM.

Consider `CNC1CC(c2ccc(Cl)c(Cl)c2)c2ccccc21` (single isomer, unassigned; (-)) [Lu 20-043-c, (-) trans N-methyl-3-(3,4-dichlorophenyl)-1-indanamine, hydrochloride], for which the IC50 worked out at 2.2 nM.
